Tests used:
[1] = system: Plasma; experiment: Fraction unbound in rat plasma at 10 uM after 5 hrs by LC-MS/MS analysis; assay type: ADME, cell-free
[2] = system: Plasma; experiment: Fraction unbound in human plasma at 10 uM after 5 hrs by LC-MS/MS analysis; assay type: ADME, cell-free
[3] = molecular target: Adenosine receptor A1 (Mus musculus) (UniProt Q60612); experiment: Displacement of [125I]I-AB-MECA from mouse A1 adenosine receptor expressed in HEK293 cells at 10 uM after 60 mins by liquid scintillation counting
[4] = system: Plasma; experiment: Fraction unbound in mouse plasma at 10 uM after 5 hrs by LC-MS/MS analysis; assay type: ADME, cell-free
[5] = molecular target: Cytochrome P450 1A2 (Homo sapiens, UniProt P05177); experiment: Inhibition of CYP1A2 in human microsomes preincubated for 5 mins before substrate addition measured after 10 mins by LC/MS/MS analysis; assay type: ADME
Outline: (§1)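 Human CYP isozyme inhibition screened at 10 μM. An IC50 was determined where inhibition was measurable. Values are the average of n = 2.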

Sequences of proteins named here, by UniProt entry; tags and fusion partners are left off.
UniProt Q60612, whole entry: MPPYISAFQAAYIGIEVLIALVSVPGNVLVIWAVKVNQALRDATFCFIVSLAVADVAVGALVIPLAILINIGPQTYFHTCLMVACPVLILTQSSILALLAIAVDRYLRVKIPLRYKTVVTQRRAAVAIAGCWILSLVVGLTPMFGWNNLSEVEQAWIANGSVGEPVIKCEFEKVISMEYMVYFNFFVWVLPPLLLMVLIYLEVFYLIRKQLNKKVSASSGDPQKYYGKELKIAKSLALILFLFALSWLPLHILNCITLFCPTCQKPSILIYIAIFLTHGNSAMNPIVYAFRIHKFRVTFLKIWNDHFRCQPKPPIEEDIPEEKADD
UniProt P05177, whole entry: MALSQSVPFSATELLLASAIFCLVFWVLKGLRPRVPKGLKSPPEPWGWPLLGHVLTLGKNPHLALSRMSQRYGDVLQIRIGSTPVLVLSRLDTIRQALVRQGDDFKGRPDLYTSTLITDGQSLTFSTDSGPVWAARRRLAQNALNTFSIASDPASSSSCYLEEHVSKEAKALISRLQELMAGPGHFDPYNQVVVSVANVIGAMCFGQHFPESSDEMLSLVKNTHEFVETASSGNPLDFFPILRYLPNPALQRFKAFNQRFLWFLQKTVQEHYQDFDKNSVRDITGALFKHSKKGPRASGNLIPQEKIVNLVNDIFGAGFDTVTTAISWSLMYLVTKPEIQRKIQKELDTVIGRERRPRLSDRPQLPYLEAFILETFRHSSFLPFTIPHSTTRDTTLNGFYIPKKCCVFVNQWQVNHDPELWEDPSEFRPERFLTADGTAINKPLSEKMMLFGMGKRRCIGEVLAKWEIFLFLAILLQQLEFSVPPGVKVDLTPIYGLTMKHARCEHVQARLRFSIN
UniProt P33261, whole entry: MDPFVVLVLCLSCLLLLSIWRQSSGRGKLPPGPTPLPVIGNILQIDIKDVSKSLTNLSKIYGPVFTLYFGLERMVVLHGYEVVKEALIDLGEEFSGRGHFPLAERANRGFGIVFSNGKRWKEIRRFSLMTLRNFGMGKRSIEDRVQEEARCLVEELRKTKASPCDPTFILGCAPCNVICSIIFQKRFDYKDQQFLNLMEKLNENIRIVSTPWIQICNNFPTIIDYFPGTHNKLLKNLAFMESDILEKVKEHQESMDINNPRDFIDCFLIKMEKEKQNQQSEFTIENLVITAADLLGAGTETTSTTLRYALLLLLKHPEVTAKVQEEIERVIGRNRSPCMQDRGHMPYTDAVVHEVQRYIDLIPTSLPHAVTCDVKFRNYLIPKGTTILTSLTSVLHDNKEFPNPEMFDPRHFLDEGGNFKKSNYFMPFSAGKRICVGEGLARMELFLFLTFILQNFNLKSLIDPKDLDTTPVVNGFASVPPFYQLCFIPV

[6] = molecular target: Cytochrome P450 2C19 (Homo sapiens, UniProt P33261); experiment: Inhibition of CYP2C19 in human microsomes preincubated for 5 mins before substrate addition measured after 10 mins by LC/MS/MS analysis; assay type: ADME; outline: as §1

SMILES	Fu [1]	Fu [2]	inhibition [3]	Fu [4]	IC50 [5]	IC50 [6]
CNC(=O)[C@@]12C[C@@H]1[C@@H](n1cnc3c(NC)nc(C#Cc4cnccn4)nc31)[C@H](O)[C@@H]2O	57.5%	61.2%	57%	59.1%		
CNC(=O)[C@@]12C[C@@H]1[C@@H](n1cnc3c(NC)nc(C#Cc4ccc(Cl)s4)nc31)[C@H](O)[C@@H]2O				2.75%		
CNC(=O)[C@@]12C[C@@H]1[C@@H](n1cnc3c(NC)nc(C#Cc4ccco4)nc31)[C@H](O)[C@@H]2O					> 10 µM	> 10 µM
